# Test results published in ChEMBL document CHEMBL1144389, “Optimization of purine based PDE1/PDE5 inhibitors to a potent and selective PDE5 inhibitor for the treatment of male ED” (Bioorg Med Chem Lett, 2005).
# Sequences of proteins named here, by UniProt entry; tags and fusion partners are left off. A change or cut given only in a name is not applied to a line headed by its entry.
# UniProt P27815: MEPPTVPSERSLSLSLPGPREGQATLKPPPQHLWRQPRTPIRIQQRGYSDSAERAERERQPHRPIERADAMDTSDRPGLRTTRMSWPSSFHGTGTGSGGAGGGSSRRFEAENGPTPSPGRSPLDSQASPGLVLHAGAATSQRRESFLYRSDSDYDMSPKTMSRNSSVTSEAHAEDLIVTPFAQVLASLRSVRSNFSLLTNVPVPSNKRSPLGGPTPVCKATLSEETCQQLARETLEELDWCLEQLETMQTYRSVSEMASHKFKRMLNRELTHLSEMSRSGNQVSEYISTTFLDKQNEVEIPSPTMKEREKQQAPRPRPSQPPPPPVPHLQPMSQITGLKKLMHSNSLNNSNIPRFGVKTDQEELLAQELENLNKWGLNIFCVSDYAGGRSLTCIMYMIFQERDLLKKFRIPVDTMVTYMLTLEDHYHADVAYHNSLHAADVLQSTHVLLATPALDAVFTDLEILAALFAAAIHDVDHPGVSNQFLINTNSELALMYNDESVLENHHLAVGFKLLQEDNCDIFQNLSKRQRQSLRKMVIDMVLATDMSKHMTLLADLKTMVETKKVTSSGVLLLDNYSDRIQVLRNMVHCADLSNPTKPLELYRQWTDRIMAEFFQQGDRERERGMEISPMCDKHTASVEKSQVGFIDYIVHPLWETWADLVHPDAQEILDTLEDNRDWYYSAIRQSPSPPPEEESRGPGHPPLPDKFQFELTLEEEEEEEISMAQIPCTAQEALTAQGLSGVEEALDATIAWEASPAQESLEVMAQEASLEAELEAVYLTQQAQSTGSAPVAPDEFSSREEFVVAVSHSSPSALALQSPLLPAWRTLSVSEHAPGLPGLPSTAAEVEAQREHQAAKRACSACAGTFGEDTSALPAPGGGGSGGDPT
# UniProt Q08499: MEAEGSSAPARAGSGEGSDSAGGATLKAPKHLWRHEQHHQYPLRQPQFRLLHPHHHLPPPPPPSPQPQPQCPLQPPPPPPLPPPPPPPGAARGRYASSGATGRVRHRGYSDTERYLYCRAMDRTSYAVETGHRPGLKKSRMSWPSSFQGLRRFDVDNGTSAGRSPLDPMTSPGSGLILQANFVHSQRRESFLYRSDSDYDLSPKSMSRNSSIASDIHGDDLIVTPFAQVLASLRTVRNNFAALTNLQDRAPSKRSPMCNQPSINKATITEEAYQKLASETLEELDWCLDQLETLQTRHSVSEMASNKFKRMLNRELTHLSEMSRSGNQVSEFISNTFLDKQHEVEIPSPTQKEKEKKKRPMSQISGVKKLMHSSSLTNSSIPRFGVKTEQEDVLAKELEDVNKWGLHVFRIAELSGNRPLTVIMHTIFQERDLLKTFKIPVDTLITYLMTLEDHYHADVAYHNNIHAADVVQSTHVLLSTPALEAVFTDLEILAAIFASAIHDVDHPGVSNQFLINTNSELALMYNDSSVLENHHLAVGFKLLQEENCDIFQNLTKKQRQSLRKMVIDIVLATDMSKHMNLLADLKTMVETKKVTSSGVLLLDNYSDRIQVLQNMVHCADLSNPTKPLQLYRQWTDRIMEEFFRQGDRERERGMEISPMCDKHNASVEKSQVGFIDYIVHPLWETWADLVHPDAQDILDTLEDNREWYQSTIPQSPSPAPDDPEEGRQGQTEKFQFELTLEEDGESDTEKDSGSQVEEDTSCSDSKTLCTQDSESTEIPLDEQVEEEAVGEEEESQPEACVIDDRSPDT
# UniProt Q07343: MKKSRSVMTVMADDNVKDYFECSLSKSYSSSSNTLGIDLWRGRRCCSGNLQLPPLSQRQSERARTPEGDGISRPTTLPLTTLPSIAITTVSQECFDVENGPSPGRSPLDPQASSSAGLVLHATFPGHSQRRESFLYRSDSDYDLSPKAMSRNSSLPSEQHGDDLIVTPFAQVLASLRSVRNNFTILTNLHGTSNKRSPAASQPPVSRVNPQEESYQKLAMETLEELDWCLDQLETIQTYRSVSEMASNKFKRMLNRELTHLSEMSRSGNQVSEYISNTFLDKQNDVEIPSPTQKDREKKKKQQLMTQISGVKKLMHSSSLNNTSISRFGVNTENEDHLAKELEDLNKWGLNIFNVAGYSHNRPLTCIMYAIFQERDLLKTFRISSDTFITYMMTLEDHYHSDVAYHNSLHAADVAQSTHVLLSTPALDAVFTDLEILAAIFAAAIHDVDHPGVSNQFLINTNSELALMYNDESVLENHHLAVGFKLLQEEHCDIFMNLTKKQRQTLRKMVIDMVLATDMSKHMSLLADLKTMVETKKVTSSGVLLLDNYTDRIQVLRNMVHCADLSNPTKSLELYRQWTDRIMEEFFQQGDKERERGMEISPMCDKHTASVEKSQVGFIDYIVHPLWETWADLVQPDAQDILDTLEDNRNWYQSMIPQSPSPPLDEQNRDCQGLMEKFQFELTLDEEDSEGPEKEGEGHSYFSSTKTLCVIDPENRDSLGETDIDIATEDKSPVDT
# UniProt Q08493: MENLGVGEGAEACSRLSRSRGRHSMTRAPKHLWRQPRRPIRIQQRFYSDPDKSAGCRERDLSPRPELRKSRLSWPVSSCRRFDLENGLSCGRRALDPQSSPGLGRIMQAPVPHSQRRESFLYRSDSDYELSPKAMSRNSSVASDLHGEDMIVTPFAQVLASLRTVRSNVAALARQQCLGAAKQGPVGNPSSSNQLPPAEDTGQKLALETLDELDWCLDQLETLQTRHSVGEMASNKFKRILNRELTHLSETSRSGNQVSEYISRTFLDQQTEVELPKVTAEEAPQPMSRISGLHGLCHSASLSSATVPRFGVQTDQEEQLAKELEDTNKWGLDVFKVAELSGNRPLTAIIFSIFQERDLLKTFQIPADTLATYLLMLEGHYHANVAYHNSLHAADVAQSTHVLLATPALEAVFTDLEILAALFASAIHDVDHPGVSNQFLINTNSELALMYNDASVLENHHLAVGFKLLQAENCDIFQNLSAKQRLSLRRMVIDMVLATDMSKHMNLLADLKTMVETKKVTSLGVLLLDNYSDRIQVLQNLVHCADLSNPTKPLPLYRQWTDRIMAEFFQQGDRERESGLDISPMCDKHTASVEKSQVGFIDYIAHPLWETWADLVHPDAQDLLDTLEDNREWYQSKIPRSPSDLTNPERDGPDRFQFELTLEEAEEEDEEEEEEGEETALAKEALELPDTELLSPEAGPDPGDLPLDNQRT
# Target: Phosphodiesterase 4 (Homo sapiens, UniProt P27815+Q08499+Q07343+Q08493)
# Assay: Inhibition of human phosphodiesterase 4
# Assay type: protein assay
smiles,measurement,value
CN1CC(=O)N2[C@H](c3ccc4c(c3)OCO4)c3[nH]c4ccccc4c3C[C@@H]2C1=O,IC50,> 10 µM
